Protein sequences, listed by entry. Tags and fused reporters are not part of them. Residues count along the entry.
UniProt P53634, 395-463: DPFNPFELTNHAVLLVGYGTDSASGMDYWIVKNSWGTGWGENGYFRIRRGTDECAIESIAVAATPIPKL
UniProt P53634, 25-134: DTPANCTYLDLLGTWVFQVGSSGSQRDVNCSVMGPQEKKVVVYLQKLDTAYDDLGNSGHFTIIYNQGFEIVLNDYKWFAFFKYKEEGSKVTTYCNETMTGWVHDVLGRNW
UniProt P53634, 231-394: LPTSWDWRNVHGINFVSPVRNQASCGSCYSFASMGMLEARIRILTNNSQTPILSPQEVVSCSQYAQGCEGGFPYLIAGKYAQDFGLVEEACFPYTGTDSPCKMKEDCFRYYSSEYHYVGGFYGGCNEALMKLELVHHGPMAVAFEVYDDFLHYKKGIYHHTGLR

According to patent US8877775B2, “Substituted 2-aza-bicyclo[2.2.2]octane-3-carboxylic acid (benzyl-cyano-methyl)-amides inhibitors of cathepsin C” (Boehringer Ingelheim International GmbH, priority 2013, dated 2014):

Target: recombinant human DPPI (Cathepsin C) (Homo sapiens (Human), UniProt P53634)
Test: Inhibition of human DPPI (Cathepsin C)
Type: biochemical
Conditions: substrate Gly-Arg-AMC 50 μM, 30 min, room temperature
Source text: Inhibition of Human DPPI (Cathepsin C)
Materials: Microtiterplates (Optiplate-384 F) were purchased from PerkinElmer (Prod. No. 6007270). The substrate Gly-Arg-AMC was from Biotrend (Prod.-No. 808756 Custom peptide). Bovine serum albumin (BSA; Prod. No. A3059) and Dithiothreitol (DTT; Prod. No D0632) were from Sigma. TagZyme buffer was from Riedel-de-Haen (Prod.-No. 04269), NaCl was from Merck (Prod.-No. 1.06404.1000) and morpholinoethane sulfonic acid (MES), was from Serva (Prod.-No. 29834). The DPP1 inhibitor Gly-Phe-DMK was purchased from MP Biomedicals (Prod.-No. 03DK00625). The recombinant human DPPI was purchased from Prozymex. All other materials were of highest grade commercially available.
The following buffers were used: MES buffer: 25 mM MES, 50 mM NaCl, 5 mM DTT, adjusted to pH 6.0, containing 0.1% BSA; TAGZyme Buffer: 20 mM NaH2PO4, 150 mM NaCl adjusted to pH 6.0 with HCl […]
Five uL test compound (final concentration 0.1 nM to 100 μM) in aqua bidest (containing 4% DMSO, final DMSO concentration 1%) were mixed with 10 μL of DPPI in MES buffer (final concentration 0.0125 ng/μL) and incubated for 10 min. […] The fluorescence in the wells was determined using a Molecular Devices SpectraMax M5 Fluorescence Reader (Ex 360 nm, Em 460 nm) or an Envision Fluorescence Reader (Ex 355 nm, Em 460 nm). […]

| IC50 [nM] | Compound |
| --- | --- |
| 134 | CN1C(=O)Cc2cc(-c3ccc(C[C@@H](C#N)NC(=O)[C@H]4NC5CCC4CC5)cc3)ccc21 [Example 19] |
| 30.1 | CS(=O)(=O)c1cc(-c2ccc(C[C@@H](C#N)NC(=O)[C@H]3NC4CCC3CC4)c(F)c2)ccc1C#N [Example 1, (2S)—N-[(1S)-1-cyano-2-[4-(4-cyano-3-methylsulfonyl-phenyl)-2-fluoro-phenyl]ethyl]-3-azabicyclo[2.2.2]octane-2-carboxamide] |
